Among the data in PubChem BioAssay AID1259313 (Sanford-Burnham Center for Chemical Genomics, 2017) are Tm shift relative to glycine control values, retold here.

The structures appear in SMILES notation. The list shows a part of the results, in another mix than the full data. Active and inactive are the calls of the source.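 The calls were made as follows: active = melting temperature shift of at least 10% of the positive control shift, at one fixed dose; inactive = the rest.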

The test system of the test is Glutamate receptor ionotropic, NMDA 3A (GRIN3A) ligand-binding domain. Briefly: NR3A LBD thermal stabilization by compounds – biophysical, differential scanning fluorimetry, uHTS, primary screen (AID 1259313). To be noted: at 25 µM, hits give high values, 0% = protein alone, 100% = glycine-bound protein. A general note: In DSF a fluorescence change marks the thermal transition of the protein.
With `CC(C)c1ccc(OP(=O)(Nc2ccccn2)Oc2ccccc2F)cc1` (centres undefined), the Tm shift relative to glycine control is inactive: -1.38%.
In the case of `COC(=O)C1(C)COP(=O)(N2CCCCCC2)OC1` (centres undefined), the Tm shift relative to glycine control was inactive: -0.18%.
The value for `ClCCSc1nnc(-c2cccnc2)o1` was inactive: 0.09%.
For `O=C(OC1CN2CCC1CC2)c1cccc2[nH]cnc12` (centres undefined), the Tm shift relative to glycine control is inactive: 0.44%.
With `CCN(CC)C(=S)SC(NC=O)C(Cl)(Cl)Cl` (centres undefined), the Tm shift relative to glycine control is inactive: 0.08%.
The value for `CC(C)NC(=O)NP(=O)(Oc1ccccc1)Oc1ccccc1` was inactive: -0.44%; that for `O=[N+]([O-])c1cc([N+](=O)[O-])c(-c2ccn[nH]2)s1` was inactive: 0.51%; that for `C[As](=O)(O)c1cccc(C(=O)O)c1` was inactive: -6.62%.
The value for `O=[As](O)(c1ccc(O)cc1)c1ccccc1O` was inactive: -1.33%; that for `COc1cc(C(=O)NCC2(N3CCOCC3)CCCCC2)ccc1OCC(C)C` was inactive: 0.17%.
Turning to `O=[N+]([O-])c1ccc(-c2cc([N+](=O)[O-])c(O)c([N+](=O)[O-])c2)cc1`, the Tm shift relative to glycine control was inactive: 6%.
As for `Cc1ccc2nc3c(c(C)c2c1)CC(C(Cl)Cl)S3` (centres undefined), the Tm shift relative to glycine control is inactive: -6.35%.
Under `Cc1ccc(OP(=O)(Nc2ccc([N+](=O)[O-])cn2)Oc2ccc(C)cc2)cc1` stands inactive: -2.68%; under `NC(=O)Nc1ccc([As](=O)(O)O)cc1`, inactive: -2.27%.
Take `CN(C)C(=O)c1cc([N+](=O)[O-])cc2c1-c1c(cc([N+](=O)[O-])cc1[N+](=O)[O-])C2=O`: the Tm shift relative to glycine control is inactive: 0.54%.
Regarding `O=[N+]([O-])c1ccc2c(c1)nnn2O`, the Tm shift relative to glycine control was inactive: 1.28%.
As for `CN(C(=O)Cc1ccc(Cl)c(Cl)c1)[C@H]1CC[C@@]2(CCCO2)C[C@@H]1N1CCCC1`, the Tm shift relative to glycine control is inactive: 1.26%.
As to `N#CCCN(C(=O)COC(=O)C(O)(c1ccccc1)c1ccccc1)c1ccc(F)cc1`, the Tm shift relative to glycine control was inactive: -4.66%.
In the case of `CCOP1(=S)c2c(C)nn(CCC#N)c2N=C(c2ccc(F)cc2)N1C` (centres undefined), the Tm shift relative to glycine control was inactive: -1.56%.
Regarding `CN(C(=O)Cc1ccccc1)[C@@H]1CC[C@]2(CCCO2)C[C@H]1N1CCCC1`, the Tm shift relative to glycine control was inactive: -0.47%.
In the case of `CS(=O)(=O)c1cc([N+](=O)[O-])c2no[n+]([O-])c2c1`, the Tm shift relative to glycine control was inactive: -3.37%.
Turning to `CCOP1(=S)c2c(C)nn(CCC#N)c2N=C(c2ccccc2F)N1C` (centres undefined), the Tm shift relative to glycine control is inactive: -2.52%.
The value for `O=P(Nc1nccs1)(c1ccccc1)c1nc2ccccc2s1` (centres undefined) was inactive: 0.51%; that for `O=P(Nc1nccs1)(Oc1ccccc1)Oc1ccccc1` was inactive: 1.51%.
Consider `Nc1ccccc1[As](=O)(O)c1ccccc1`, for which the Tm shift relative to glycine control is inactive: 1.18%.
Take `O=C(O)COc1ccc([As](=O)(O)O)cc1[N+](=O)[O-]`: the Tm shift relative to glycine control was inactive: -0.8%.
On to `CCCOP(=S)(Nc1nc(N)cc(=O)[nH]1)OCCC`, for which the Tm shift relative to glycine control is inactive: -6.62%.
For `Nc1cccc2c([As](=O)(O)O)cccc12`, the Tm shift relative to glycine control was inactive: 1.8%.
Turning to `Cc1ccc(NCCc2c([N+](=O)[O-])cc([N+](=O)[O-])cc2[N+](=O)[O-])cc1`, the Tm shift relative to glycine control is inactive: -3.53%.
`COc1cc(C2NCCC3(OCCO3)C2(C)C)cc(OC)c1OC` (centres undefined): the Tm shift relative to glycine control is inactive: -12.5%.
The value for `CCOP(=O)(Nc1cccc2ccccc12)OCC` was inactive: 0.34%; that for `COc1cc(C(=O)NCC2(N3CCOCC3)CCCCC2)cc(Cl)c1OC(C)C` was inactive: -1.01%; that for `O=[As](O)(O)c1cccnc1` was inactive: -0.47%.
The value for `CS(=O)(=O)c1ccc(Cl)c(NC(=O)COC(=O)C(O)(c2ccccc2)c2ccccc2)c1` was inactive: 2.2%.
As to `O=C(OC1CN2CCC1CC2)c1ccc(Cl)cc1` (centres undefined), the Tm shift relative to glycine control is inactive: 1.33%.
Under `O=[As](O)(c1cccc(O)c1)c1cccc(O)c1` stands inactive: -0.93%; under `Cc1cccc(OCC(=O)OC2CN3CCC2CC3)c1` (centres undefined), inactive: -1.14%.
Regarding `COc1ccccc1CNC(=O)COC(=O)C(O)(c1ccccc1)c1ccccc1`, the Tm shift relative to glycine control is inactive: 0.17%.
Take `CC1(CBr)Cn2c(nc3ccccc3c2=O)S1` (centres undefined): the Tm shift relative to glycine control was inactive: 5.11%.
With `CC(C)/C=N\N=C(\N)N[N+](=O)[O-]`, the Tm shift relative to glycine control was inactive: 0.79%.
The value for `CN(CCCl)Cc1cc(Cl)c(NC2=NCCN2)c(Cl)c1` was inactive: -0.95%; that for `CCOP(=O)(Nc1ccc(C)cn1)OCC` was inactive: 6.11%; that for `O=P1(Nc2ccccn2)COc2ccccc2OC1` was inactive: 2.47%.
Under `CCC1=CC2Cc3nc4ccc(Cl)cc4c(N)c3C(C1)C2` (centres undefined) stands inactive: -1.59%; under `CCOP(=O)(NC(=NC(C)c1ccccc1)NC(C)c1ccccc1)OCC` (centres undefined), inactive: -0.18%.
With `Clc1n[nH]nc1-c1nn[nH][15n]1`, the Tm shift relative to glycine control is inactive: 3.96%.
For `CC(C)(C)C(=O)NC(Sc1ncccn1)C(Cl)(Cl)Cl` (centres undefined), the Tm shift relative to glycine control was inactive: 0.48%.
Consider `O=P1(Nc2ncccn2)COc2ccccc2OC1`, for which the Tm shift relative to glycine control was inactive: 2.22%.
In the case of `O=P1(Nc2ccc(Br)cn2)COc2ccccc2OC1`, the Tm shift relative to glycine control is inactive: 1.59%.
In the case of `NS(=O)(=O)c1cccc(NC(=O)COC(=O)C(O)(c2ccccc2)c2ccccc2)c1`, the Tm shift relative to glycine control is inactive: -3.45%.
Take `O=[As](O)(c1cccs1)c1cccs1`: the Tm shift relative to glycine control is inactive: 1.8%.
Under `Cc1ccc(OCC(=O)OC2CN3CCC2CC3)cc1` (centres undefined) stands inactive: -0.09%.
The value for `Nc1cccc([As](=O)(O)c2ccccc2)c1` was inactive: 0.32%; that for `Cc1nn(-c2ccccc2)c2c1P(=O)(N1CCOCC1)N(C)C(c1ccccc1)=N2` (centres undefined) was inactive: -0.09%.
Regarding `CC1CCC(C(C)C)C(OP(=O)(Nc2ccccn2)c2ccccc2)C1` (centres undefined), the Tm shift relative to glycine control was inactive: -2.86%.
Turning to `Cc1ccc(C(=O)OC2CN3CCC2CC3)cc1` (centres undefined), the Tm shift relative to glycine control was inactive: -6.62%.
With `O=C(/C=C/c1ccccc1)OC1CN2CCC1CC2` (centres undefined), the Tm shift relative to glycine control was inactive: -0.64%.
As to `CCCC1OP(=O)(Nc2ccccc2)OCC1CC` (centres undefined), the Tm shift relative to glycine control is inactive: 0.6%.
As to `CN(C)C1(CNC(=O)c2ccc(S(C)(=O)=O)cc2)CCCCC1`, the Tm shift relative to glycine control was inactive: -0.93%.
